Binding of CDR-mutated scFvs to a peptide of the spike HR2 region

All variants were tested on one target, the spike HR2 peptide PDVDLGDISGINAS (SARS-CoV-2).

Each scFv is VH, the linker GGGGSGGGGSGGGGS, VL, as in the parent Ab-14, and differs from it in the CDRs of the light chain only.
VH: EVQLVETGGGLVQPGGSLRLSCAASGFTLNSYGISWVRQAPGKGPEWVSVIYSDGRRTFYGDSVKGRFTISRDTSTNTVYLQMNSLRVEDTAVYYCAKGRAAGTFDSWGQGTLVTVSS
VL: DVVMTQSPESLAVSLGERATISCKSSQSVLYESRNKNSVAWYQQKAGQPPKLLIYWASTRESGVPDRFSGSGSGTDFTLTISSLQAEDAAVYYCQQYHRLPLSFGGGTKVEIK

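Phage display of a naive human antibody library on the peptide gave the parent. AAYL50 was designed without a model: most single CDR substitutions and a random sample of double and triple ones. Affinity was read by AlphaSeq, a pooled yeast mating assay with surface-displayed partners. The frequency of each diploid, read from paired DNA barcodes, reflects how well the two displayed proteins bind. Read counts were normalised to the haploid input and turned into Kd by a linear fit to BCL2-family pairs of known affinity, for each replicate. Each pool was mated in three replicate cultures.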

The parent's light chain CDRs are KSSQSVLYESRNKNSVA, WASTRES, QQYHRLPLS; each variant's own CDRs replace them letter for letter. All variants listed here change Y97 of the VL, counted from its first residue. Values are log10 of the apparent Kd in nM; lower means stronger binding. Averages over replicates are reported, and they cover detected replicates only. An entry "nd" has no value in the source: the pair was not observed among the diploids in any replicate. This suggests poor binding but is not conclusive.

For KCSQSVLYESRNKNSVA | WASTRES | QQSHRLPLL, the assay gave nd (0 of 3 replicates; controls 0 of 9). Variant KSSQKVLYESRNKNSVA | WADTRES | QQGHRLPLS showed nd (0 of 3 replicates; controls 1 of 9). With KSSQSVLYESRNKNSVA | WASTRES | QQIHRLPLS the result was nd (0 of 3 replicates; controls 2 of 9). Variant KSSQSVLYEHRNKNSVA | WASTRHS | QQIHRLPLS gave nd (0 of 3 replicates; controls 1 of 9). With KSSQSVLYESRNKNVVA | WLSTRES | QQVHRLPLS the result was 3.44 (1 of 3 replicates; controls 1 of 9). Variant KSSFSVLYESRYKNSVA | WASTRES | QQGHRLPLS showed 3.48 (1 of 3 replicates; controls 3 of 9). For KSSQSVLYESRNKNSVA | VASTRES | QQFHRVPLS, the assay gave 5.36 (1 of 3 replicates; controls 4 of 9).

With KSSQSVLYCSRNKNSVA | EASTRES | QQKHRLPLS the result was nd (0 of 3 replicates; controls 2 of 9). For KSSQSVLYESRNKNSVA | WASTRES | QQAHRWPLS, the assay gave 4.65 (3 of 3 replicates; controls 3 of 9). Variant KSSQSVLYEIRNKNSVA | WASTFES | QQTHRLPLS gave nd (0 of 3 replicates; controls 4 of 9). For KSSQSVLYESRNKNSVA | WASTRSS | QQTARLPLS, the assay gave nd (0 of 3 replicates; controls 2 of 9). For KSSQSLLYESRNKNSVA | WASTRAS | QQSHRLPLS, the assay gave 3.21 (3 of 3 replicates; controls 1 of 9). With KSFQSVLYESRNKNSVA | WAATRES | QQHHRLPLS the result was nd (0 of 3 replicates; controls 1 of 9). For KSSQSVLYESRMKNSVA | WATTRES | QQTHRLPLS, the assay gave 3.42 (2 of 3 replicates; controls 0 of 9).

Variant KSSQSVLYESINKNSVC | WASTRES | QQWHRLPLS gave nd (0 of 3 replicates; controls 1 of 9). For KSSQGVLYESRNKNSVA | WASTRES | QQNHPLPLS, the assay gave 3.79 (2 of 3 replicates; controls 5 of 9). Variant KSSQSVLYESRNKNSVA | WASTRES | RQFHCLPLS showed 1.21 (3 of 3 replicates; controls 0 of 9). With WSSVSVLYESRNKNSVA | WASTRES | QQLHRLPLS the result was 3.15 (1 of 3 replicates; controls 1 of 9). Variant KSSQSVLYESRNKNSVA | WASTRES | QQEHRLPLS gave 0.93 (3 of 3 replicates; controls 2 of 9). Variant KSSQSVLYGSRNKNSVA | WASTEES | QQAHRLPLS showed nd (0 of 3 replicates; controls 3 of 9). Variant KSSQSVLYESRNCNSVA | QASTRES | QQIHRLPLS showed 0.95 (3 of 3 replicates; controls 1 of 9).

Variant KSSQSVLYESRNKNSVA | WASDRES | QQADRLPLS showed 4.53 (2 of 3 replicates; controls 4 of 9). Variant KSSQSVLMEGRNKNSVA | WASTRES | QQWHRLPLS gave 3.29 (1 of 3 replicates; controls 1 of 9). Variant KGSQSVLYESRNKNSVA | WASTRES | QQPHRLHLS showed 3.96 (2 of 3 replicates; controls 2 of 9). With KSSQSVLYESRNKNSVA | KASTRIS | QQKHRLPLS the result was 2.18 (3 of 3 replicates; controls 1 of 9). With KSSQSVLYESRNKNSVA | CASTRES | QQIHRLPDS the result was 2.23 (3 of 3 replicates; controls 6 of 9). Variant KSSQSVLYESRNKNSVA | WASFRES | QFVHRLPLS gave nd (0 of 3 replicates; controls 1 of 9). Variant KSSQSVLDESRNKNSVA | QASTRES | QQPHRLPLS gave 3.29 (3 of 3 replicates; controls 6 of 9).

Variant KSSQSVLYESRNKVSVA | WASMRES | QQLHRLPLS showed 4.14 (1 of 3 replicates; controls 3 of 9). For KSSPSVLYESRNKNSVA | WASTRES | QQNHRLTLS, the assay gave nd (0 of 3 replicates; controls 3 of 9). For KSSQTVLYESRNKNSVA | WASTREG | QQTHRLPLS, the assay gave 3.90 (1 of 3 replicates; controls 3 of 9). For KSSQSVLYESRNKNSVA | WASTREL | QQIKRLPLS, the assay gave 1.20 (3 of 3 replicates; controls 1 of 9). With KSSQSVLYESRNKTSVA | WASTRES | QQPHRLPLM the result was 1.20 (3 of 3 replicates; controls 1 of 9). With KSSQSVNYESRNKNSVA | WASTRES | RQTHRLPLS the result was nd (0 of 3 replicates; controls 4 of 9). With KSSQIVLYESRVKNSVA | WASTRES | QQDHRLPLS the result was 2.79 (3 of 3 replicates; controls 0 of 9).

Variant KSSQSVLYESRNQNSVA | WASDRES | QQRHRLPLS gave 2.93 (1 of 3 replicates; controls 1 of 9). Variant KSSQSFLYESRNKNSVA | WASTRES | QQAHRLTLS gave 4.27 (2 of 3 replicates; controls 2 of 9). Variant KSSQSVLYKSRNKNSVA | WASTRES | QQPHRLPLS showed 2.09 (3 of 3 replicates; controls 3 of 9). Variant KSSQSVMYESRNPNSVA | WASTRES | QQEHRLPLS gave 0.68 (3 of 3 replicates; controls 3 of 9). Variant KSSQSVLCESRNKNSVA | WASTRES | QQKHRLHLS gave nd (0 of 3 replicates; controls 0 of 9). Variant KSSQSVLYESRNKNSPA | WQSTRES | QQNHRLPLS gave nd (0 of 3 replicates; controls 0 of 9). For KSSQSVLYESRNKNSVA | WDSTRYS | QQVHRLPLS, the assay gave nd (0 of 3 replicates; controls 1 of 9).

With NSSQSVLYESRNKNSVA | WASARES | QQLHRLPLS the result was 5.32 (3 of 3 replicates; controls 8 of 9). Variant KSSQSVLYESREWNSVA | WASTRES | QQKHRLPLS gave nd (0 of 3 replicates; controls 1 of 9). With KSSQSVLYESRAKNSVA | AASTRES | QQQHRLPLS the result was -0.28 (3 of 3 replicates; controls 0 of 9). Variant KSSQSVLYESRNKNSVA | WASTRES | QQFHRLPLS gave 1.73 (2 of 3 replicates; controls 0 of 9). Variant KLSQSVLYESRNKNSVA | WASTRES | QQMNRLPLS gave 4.38 (3 of 3 replicates; controls 4 of 9). With KSSQSVLYESRNKNSVA | WARTRES | QQDHRNPLS the result was 4.20 (1 of 3 replicates; controls 2 of 9). Variant KSSQAWLYESRNKNSVA | WASTRES | QQDHRLPLS showed 3.22 (1 of 3 replicates; controls 1 of 9).

Variant KSSQSVLYESRNKNSVA | LASTCES | QQFHRLPLS showed nd (0 of 3 replicates; controls 3 of 9).

Excerpt, the final 5 entries:

Variant KSSQSVLYESRNKNSVA | WASTRES | QQFHRLPLS gave 1.73 (2 of 3 replicates; controls 0 of 9).
Variant KLSQSVLYESRNKNSVA | WASTRES | QQMNRLPLS gave 4.38 (3 of 3 replicates; controls 4 of 9).
Variant KSSQSVLYESRNKNSVA | WARTRES | QQDHRNPLS gave 4.20 (1 of 3 replicates; controls 2 of 9).
Variant KSSQAWLYESRNKNSVA | WASTRES | QQDHRLPLS gave 3.22 (1 of 3 replicates; controls 1 of 9).
Variant KSSQSVLYESRNKNSVA | LASTCES | QQFHRLPLS gave nd (0 of 3 replicates; controls 3 of 9).

Nonspecific signal, from three strains lacking the peptide, appeared in 18% of pairings of library AAYL50, centred on 4.19 (5% of these signals below 2.99); values are not corrected for it. Also given: how often the same scFv was detected with the empty control strains. Parent in this assay: reference entry 0.65, copy in this library 1.68.

Values reported by Engelhart et al. 2022, doi:10.1038/s41597-022-01779-4 (FLAb copy).